# Assay outcomes deposited in PubChem by National Center for Advancing Translational Sciences (NCATS).
# The list is not random: actives were taken first. Their share in the collection is about 13%.
# miR-21 reporter = raises the signal of a miR-21 reporter. Potency, µM (highest dose often 38.3 µM), without a hit: top-dose reporter change, positive = more light. 340,000 tested, under 10 active. HeLa miR-21 FLuc reporter, luciferase, 48 h; active = well fitted rising curve with a large enough effect; inconclusive = small, poorly fitted or top-dose-only effect; inactive = no such curve, though single readings can be large or run the other way;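 further: % of control where 0% means no effect; miR-21 action dims this reporter so a rising signal means less miR-21 action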
#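 HeLa cells endogenously expressing miR-21, stably carrying CMV-driven firefly luciferase with a downstream miR-21 binding site, 2000 cells/well. Titrations up to approximately 40 uM, 48 hours; luciferase luminescence read.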
# LMNA splice mod = changes lamin A minigene splicing in HeLa cells. 200,000 tested, 0.01% active. AID 1487. HeLa LMNA splicing GFP/RFP minigene ratio, 48 h. Potency, µM (highest dose often 46.1 µM), for the others: top-dose ratio change, negative = inhibition, usual class: inhibitors; active = well fitted inhibition curve with a large enough effect in the signal ratio, with a control signal flat, not every such curve was filed as active; inconclusive = small, poorly fitted or top-dose-only effect, or effect the other way, or a change in a side signal; the % refers to the signal ratio; also: potency is read from the fitted curve at half-maximal effect; % is scaled to controls: 0 for no effect and ±100 for the full control effect
#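 Read-out is the ratio of GFP to DsRed2 object intensity, acquired by 488 nm laser-scanning cytometry on HeLa lamin A-EGFP minigene reporter cells. Compound incubation 48 hrs at 37 °C in Opti-MEM with 2% FBS; DMSO 0.5% final.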
# Sfp inh = inhibitors of Bacillus subtilis Sfp phosphopantetheinyl transferase. Biochemical Sfp PPTase activity, qHTS. 310,000 compounds, 3.5% hits. Q9F4F7. Potency, µM, for the others: max response, negative = inhibition, usual class: inhibitors; active = well fitted inhibition curve with a large enough effect; inconclusive = small, poorly fitted or top-dose-only effect, or another doubt; inactive = no such curve, though single readings can be large or run the other way;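 note: the enzyme is Sfp with the accession as filed and its product quenches rhodamine fluorescence; potency is the fitted concentration of half-maximal effect; 0% = enzyme reaction without inhibitor and -100% = no enzyme wells; top concentration of the series not given in the record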
#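 Fluorescence-quenching assay: 15 nM Sfp-PPTase preincubated 15 min at room temperature with compound, then 5 uM rhodamine-CoA and 12.5 uM BHQ-2-labelled YbbR peptide added. Fluorescence (ex 525/em 598 nm) read at start and after 30 min; difference gives rate.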
# ALDH1A1 block = inhibitors of human aldehyde dehydrogenase 1A1; P00352; Purified ALDH1A1, NADH fluorescence, propionaldehyde substrate; Potency, µM (titrated, usually from 75.3 µM), inactives show at the top dose activity, negative = inhibition, usual class: inhibitors; 220,000 tested, 7.3% active; AID 1030; active = well fitted inhibition curve with a large enough effect, not every such curve was filed as active; inconclusive = small, poorly fitted or top-dose-only effect, or another doubt; inactive = no such curve, though single readings can be large or run the other way;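 also: potency is read from the fitted curve at half-maximal effect; plate controls were no enzyme wells and a reference inhibitor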
# G9a block = blocks human histone lysine methyltransferase G9a | Q96KQ7 | G9a H3K9 monomethylation, AlphaScreen, 2 h | AID 504332 | 350,000 tested, 8.8% active | Potency, µM (doses to about 102 µM), inactives show at the top dose activity, negative = inhibition, usual class: inhibitors; also: potency is read from the fitted curve at half-maximal effect; % is scaled to controls: 0 for no effect and ±100 for the full control effect; nearly all actives have a fitted effect of over 75% in size
#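 AlphaScreen read-out: biotin-H3K9 peptide (500 nM) methylation by 20 nM enzyme with 20 uM SAM, 2 h at room temperature after 15 min compound preincubation; anti-monomethyl H3K9 antibody plus donor/acceptor beads, 10 min dark.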
# JMJD2E inh = blocks human JMJD2E demethylase activity; Potency, µM (doses to about 57.1 µM), without a hit: at the highest dose activity change, negative = inhibition, actives largely listed as inhibitors; 230,000 tested, 1.6% active; JMJD2E catalytic domain, FDH-coupled NADH fluorescence (FDH is formaldehyde dehydrogenase); AID 2147; active = well fitted inhibition curve with a large enough effect, not every such curve was filed as active; inconclusive = small, poorly fitted or top-dose-only effect, or another doubt; inactive = no such curve, though single readings can be large or run the other way;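 also: potency is read from the fitted curve at half-maximal effect; 0% = wells with enzyme and -100% = buffer wells without enzyme; nearly all actives have a fitted effect of over 50% in size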
# * marks the source's active call; other numbers are inactive results; ? = inconclusive; / = not tested or not shown; [ ] = dose if it differs, or a comment. Unless noted, calls follow the shape of the dose curve; as a rule, active = well fitted curve in the direction sought with a large enough effect; inconclusive = small, poorly fitted or top-dose-only effect, or another doubt; inactive = no such curve, though single readings can be large; an effect the other way counts as inactive or inconclusive.
# Keys – A = miR-21 reporter; B = LMNA splice mod; C = Sfp inh; D = ALDH1A1 block; E = G9a block; F = JMJD2E inh
COc1ccc(N(C)C(=O)CCn2cnc3onc(-c4ccc(F)cc4)c3c2=O)c(OC)c1
  A: 14% | B: -2%[46 µM] | C: / | D: / | E: -23%[59 µM] | F: /
COc1cc(OC)cc(C(=O)Nc2cc3c(cc2N2CCCCC2)n(C)c(=O)n3C)c1
  A: -1% | B: / | C: / | D: / | E: 3%[59 µM] | F: /
CCOC(=O)C1CCN(c2cc3c(cc2NC(=O)c2cc(OC)ccc2Br)n(C)c(=O)n3C)CC1
  A: -1% | B: / | C: -1% | D: / | E: 40µM* | F: /
COc1cccc(C(=O)Nc2cc3c(cc2N2CCCC2)n(C)c(=O)n3C)c1
  A: -6% | B: / | C: -5% | D: / | E: 45µM* | F: /
Cn1c(=O)n(C)c2cc(N3CCCC3)c(NC(=O)c3cccc(F)c3)cc21
  A: -9% | B: / | C: 4% | D: / | E: 45µM* | F: /
Cc1ccccc1C(=O)Nc1cc2c(cc1N1CCCCC1)n(C)c(=O)n2C
  A: 9% | B: / | C: / | D: / | E: 16µM* | F: /
COc1cccc(NC(=O)Nc2ccc3nc(N4CCN(C)CC4)cc(C)c3c2)c1
  A: -28% | B: ? | C: / | D: / | E: -43%[59 µM] | F: /
CC(C)(CNC(=O)c1ccccc1NS(C)(=O)=O)N1CCCCC1
  A: -1% | B: / | C: 23% | D: / | E: 17% | F: /
Cn1nnc2c(N3CCN(c4cccc(Cl)c4)CC3)ncnc21
  A: -10% | B: -4%[46 µM] | C: / | D: / | E: 4%[59 µM] | F: /
COC(=O)[C@@]1(Cc2ccc(OC)cc2)[C@H]2c3cc(C(=O)N(C)C)n(Cc4ccc(OC)c(OC)c4)c3C[C@H]2CN1C(=O)c1ccccc1
  A: / | B: / | C: -19% | D: -5% | E: / | F: ?
CN1C(=O)/C(=C\C(=O)c2cccs2)c2ccccc21
  A: ? | B: ? | C: 45µM* | D: ? | E: 20µM* | F: -10%
CC(=O)N(C)c1ccc(N=C2C(=O)Nc3ccccc32)cc1
  A: -2% | B: / | C: 2% | D: / | E: 21% | F: /
O=C1CCN(C(=O)c2cccs2)c2ccccc21
  A: 1% | B: 10% | C: 5% | D: -9% | E: 1% | F: 10%
CC(=O)/C=C1\C(=O)N(C)c2ccccc21
  A: / | B: / | C: / | D: / | E: 8.9µM* | F: /
C=CCOc1cccc(C(=O)/C=C2/C(=O)Nc3ccccc32)c1
  A: ? | B: / | C: 56µM* | D: / | E: ? | F: /
CC(=O)/C=C1/C(=O)Nc2ccccc21
  A: 28% | B: ? | C: 50µM* | D: 3.2µM* | E: 11µM* | F: 1%
COc1ccc(S(=O)(=O)N2CCN(c3ccc(Cl)c(Cl)c3)CC2)c2ccccc12
  A: 3% | B: / | C: / | D: / | E: 0%[59 µM] | F: /
CCc1ccccc1NC(=O)CCn1nc(C)c2c(C)n(-c3ccccc3)nc2c1=O
  A: -1% | B: / | C: / | D: / | E: -17%[59 µM] | F: /
Cc1nn2c(=O)cc(COC(=O)COc3ccccc3C)nc2s1
  A: 0% | B: 10%[46 µM] | C: / | D: / | E: 6%[59 µM] | F: /
CCOc1cc(/C=C2\C(=O)N(c3ccc(C(N)=O)cc3)N=C2C)ccc1OC(=O)c1cccs1
  A: 2% | B: ? | C: 56µM* | D: 0.71µM* | E: 45µM* | F: ?
O=C(N/N=C/c1ccc(OC(=O)c2cccs2)cc1)c1ccc(F)cc1
  A: -10% | B: 9% | C: -7% | D: -1% | E: -17%[59 µM] | F: 4%
CC1=NN(c2ccc(C(=O)O)cc2)C(=O)/C1=C\c1ccc(OC(=O)c2cccs2)cc1
  A: -11% | B: 14%[46 µM] | C: ? | D: 2.2µM* | E: 32µM* | F: 3.2µM*
CCOc1cc(/C=C2/C(=O)N(c3ccccc3)N=C2C)ccc1OC(=O)c1ccco1
  A: 2% | B: 5% | C: ? | D: ? | E: ? | F: ?
O=c1c(=O)n(-c2ccccc2)ccn1Cc1c(F)cccc1Cl
  A: -15% | B: ? | C: / | D: / | E: -4%[59 µM] | F: /
COCCOC(=O)C1=C(C)N(c2ccccc2)C(=S)NC1c1ccccc1C(F)(F)F (configuration not stated)
  A: 3% | B: -14%[9.22 µM] | C: 16% | D: 6% | E: -23% | F: -12%

# Next section; it opens with the 3 that closed the last part.
# Keys – A = miR-21 reporter; B = LMNA splice mod; C = Sfp inh; D = ALDH1A1 block; E = G9a block; F = JMJD2E inh
CCOc1cc(/C=C2/C(=O)N(c3ccccc3)N=C2C)ccc1OC(=O)c1ccco1
  A: 2% | B: 5% | C: ? | D: ? | E: ? | F: ?
O=c1c(=O)n(-c2ccccc2)ccn1Cc1c(F)cccc1Cl
  A: -15% | B: ? | C: / | D: / | E: -4%[59 µM] | F: /
COCCOC(=O)C1=C(C)N(c2ccccc2)C(=S)NC1c1ccccc1C(F)(F)F (configuration not stated)
  A: 3% | B: -14%[9.22 µM] | C: 16% | D: 6% | E: -23% | F: -12%
COC(=O)C1=C(C)N(c2ccccc2)C(=S)NC1c1ccccc1C(F)(F)F (configuration not stated)
  A: -3% | B: -16%[46 µM] | C: 12% | D: -8% | E: 50µM* | F: -21%
CCOC(=O)c1[nH]c(C)c(CCC(=O)Nc2ccc(N(CC)CC)cc2C)c1C
  A: 7% | B: ? | C: / | D: / | E: 14µM* | F: /
COc1ccc(CCn2c(=N)c(C(=O)N3CCN(C)CC3)cc3c(=O)n4ccccc4nc32)cc1
  A: -10% | B: 1% | C: 1% | D: ? | E: 40µM* | F: ?
CN1CCN(c2nc3c(S(=O)(=O)c4ccccc4)nnn3c3ccsc23)CC1
  A: -2% | B: / | C: / | D: / | E: 4%[59 µM] | F: /
Cc1ccc(S(=O)(=O)NC2CCCCC2)c2nsnc12
  A: -15% | B: -11% | C: 3% | D: 16µM* | E: 0% | F: 2%
CC(C)C(CC(=O)NCc1ccco1)c1ccco1 (configuration not stated)
  A: 2% | B: -5% | C: 28µM* | D: ? | E: 40µM* | F: 0%
CC(=O)NC(Cc1c[nH]c2ccccc12)C(=O)NCc1ccco1 (configuration not stated)
  A: -2% | B: / | C: 6% | D: / | E: 9% | F: /
CC(Cc1c[nH]c2ccccc12)C(=O)NCc1ccco1 (configuration not stated)
  A: 1% | B: / | C: 9% | D: / | E: 32µM* | F: /
O=C(CCSCCC(=O)NCc1ccco1)NCc1ccco1
  A: -6% | B: -3% | C: 16µM* | D: 18µM* | E: ? | F: ?
Cc1cc(C(F)F)nn1CC(=O)NCc1ccco1
  A: -1% | B: -7% | C: 1% | D: ? | E: ? | F: ?
Cc1cc(-c2ccco2)n(CC(=O)NCc2ccco2)n1
  A: -2% | B: 3% | C: -25% | D: 7% | E: 50µM* | F: 4%
O=C(CCSCc1ccccc1Cl)NCc1ccco1
  A: 0% | B: / | C: 15% | D: -9% | E: 22%[59 µM] | F: 3%
Cc1ccc(NC(=O)C2CCC(CNS(=O)(=O)c3ccc4c(c3)CCCC(=O)N4)CC2)c(C)c1 (configuration not stated)
  A: 14% | B: / | C: / | D: / | E: 12%[59 µM] | F: /
CN(C)C1=NCCN1CCc1ccc(F)cc1
  A: / | B: / | C: / | D: / | E: -9%[2.33 µM] | F: /
CCOC(=O)C1CCN(C(=O)c2ccc(NC(=O)c3nsc4ccccc34)cc2)CC1
  A: -5% | B: -4%[46 µM] | C: / | D: / | E: -2%[59 µM] | F: /
Cc1ccc(Cl)cc1N1CCN(C(=O)CCS(=O)(=O)c2ccc3c(c2)NC(=O)CO3)CC1
  A: ? | B: / | C: 10% | D: / | E: 15% | F: /
CCOc1ccccc1NC(=O)CN(C)S(=O)(=O)c1ccc2nc(C)sc2c1
  A: 0% | B: / | C: / | D: / | E: -9%[59 µM] | F: /
O=C(Cc1ccccc1[N+](=O)[O-])NCc1ccco1
  A: -17% | B: / | C: 50µM* | D: ? | E: ? | F: -5%
O=C(Cc1ccccc1[N+](=O)[O-])NCc1ccncc1
  A: 0% | B: 3%[46 µM] | C: 13% | D: 5% | E: 0% | F: -7%
Cn1ccc(C(=O)NC(=S)N2CCSCC2)n1
  A: -16% | B: -12%[46 µM] | C: 45µM* | D: ? | E: 13µM* | F: 4%
Cc1ccc2cccc(NC(=S)NC(=O)c3ccn(C)n3)c2n1
  A: -14% | B: 6% | C: -2% | D: -9% | E: ? | F: -9%
Cc1cccc(-n2cnc(C(=O)O)c2)n1
  A: -1% | B: / | C: 56µM* | D: 2% | E: -42% | F: ?
NC(=S)C1COc2ccccc2O1 (configuration not stated)
  A: 1% | B: / | C: -15% | D: / | E: 45µM* | F: 1%
CCOc1ccc(N(C(C)C(=O)N2CCOCC2)S(C)(=O)=O)cc1 (configuration not stated)
  A: -1% | B: / | C: 4% | D: / | E: 11% | F: /
